Yeast UUG start: alters start codon recognition fidelity in yeast; AID 602363; activity score, % at 18.7 µM; 350,000 tested, 0.13% active; S. cerevisiae UUG-firefly luciferase reporter, luminescence/redox ratio;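 active means replicate mean at a twofold rise or more, about +100% in these data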;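 further: firefly luciferase made from a UUG start codon reports start codon fidelity; reporter light over untreated wells divided by growth signal over untreated wells; some hits fall short of that in this replicate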
AF4-AF9 inh: blocks AF4 peptide binding to human AF9. inhibition, % at 10 µM. 350,000 compounds, 0.47% hits. P42568. AlphaScreen, biotin-AF4 peptide binding to FLAG-AF9;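 active = every replicate reaching a set inhibition limit, whatever the replicate mean, cut at about 25% in these data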;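 also: 0% = plate neutral control median and 100% = total signal loss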
E-sel inducer: induces E-selectin expression in human endothelial cells; P16581; HUVEC E-selectin immunofluorescence imaging; normalized: neutral wells 0, TNF-alpha wells 100; activation, % at 7.58 µM; 260,000 compounds, 0.37% hits;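 active = mean E-selectin-positive cell signal at least 10% of the positive control, reached in at least 60% of replicates, without over 20% cell loss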
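assay system = HUVEC, human umbilical vein endothelial cells | input = 3,000 HUVEC seeded per well | medium = EGM-2 growth medium on 0.1% gelatin-coated wells | dosing = one compound dose added by pin transfer | signal = immunofluorescence imaging | read-out basis = % PE-positive cells | control set = TNF-alpha, DMSO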
RAD52 inh: RAD52 (human) annealing inhibition; P43351; recombinant RAD52 DNA annealing, FRET fluorescence; inhibition, % at 18.7 µM; 360,000 compounds, 0.46% hits;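 active = every replicate showing at least 50% inhibition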
SIRT5 block: blocks human SIRT5 desuccinylation of peptide; Purified SirT5, succinyl-peptide AMC, trypsin-coupled fluorescence; 330,000 compounds, 1.1% hits; inhibition, % at 15 µM; in the data active = inhibition above about 15%
RAD54 inh: RAD54 (human) branch migration inhibition; Q92698; RAD54 Holliday junction branch migration, FAM/BHQ fluorescence; inhibition, % at 10.4 µM; 360,000 compounds, 0.14% hits; AID 602329;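 active = mean normalized replicate activity at least 40 and at least half of replicates scoring 40 or more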;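 also: 0% = median of neutral control wells and 100% = median of positive control wells; inhibitors cause a drop in the FAM fluorescence signal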
Starred values were filed as active, the others as inactive; · = no result given; ! = a repeat was not active. In the library only some 1.8% were active in any assay of this set; here they are far more common.

SMILES	Yeast UUG start	AF4-AF9 inh	E-sel inducer	RAD52 inh	SIRT5 block	RAD54 inh
C[C@H](CO)N1C[C@H](C)[C@H](CN(C)CC2CCCCC2)Oc2ccc(NC(=O)Nc3ccc4c(c3)OCO4)cc2C1=O	22.3	10.0	348.8*	4.3	7.9	4.9
C[C@@H]1CN([C@@H](C)CO)C(=O)Cc2cc(NC(=O)NC3CCCCC3)ccc2O[C@H]1CN(C)C(=O)Nc1ccc2c(c1)OCO2	6.1	1.0	27.8*	-5.5	-1.5	6.5
CCCCCCCCN1[C@@H](CC(=O)O)c2cc(C(F)(F)F)ccc2S1(=O)=O	20.7	2.3	0.0	-17.6	40.1*	10.8
CCC(=O)N[C@H]1C[C@@H]2O[C@H](CO)CC[C@@H]2O[C@@H]1CCc1ccc(-c2cccc(OC)c2)cc1	·	-1.7	·	-9.3	1.8	·
C[C@@H]1CN([C@@H](C)CO)C(=O)c2cc(NC(=O)Cn3cnnn3)ccc2O[C@@H]1CN(C)CC1CCCCC1	6.7	0.0	-0.4	-13.9	-3.5	-0.9
Cc1noc(C)c1S(=O)(=O)N(C)C[C@@H]1Oc2ccc(NC(=O)Cn3cnnn3)cc2C(=O)N([C@@H](C)CO)C[C@@H]1C	-9.9	-4.4	-5.9	-30.9	23.1*	-23.6
C[C@H](CO)N1C[C@H](C)[C@@H](CN(C)CC2CCCCC2)Oc2ccc(NC(=O)Cn3cnnn3)cc2C1=O	-12.4	1.3	-0.4	-22.8	15.3*!	-3.5
C[C@@H]1CN([C@H](C)CO)C(=O)c2cc(NC(=O)Cn3cnnn3)ccc2O[C@@H]1CN(C)S(=O)(=O)c1ccccc1	·	1.2	60.3*	-13.3	-5.8	·
CO[C@H]1CN(C)C(=O)c2ccc(NC(=O)c3cc(C)on3)cc2OC[C@@H](C)N(C(=O)C2CC2)C[C@@H]1C	-10.1	-1.6	0.0	-17.5	2.0	2.6
CC(C)NC(=O)NCC[C@H]1CC[C@H](NS(=O)(=O)c2ccc(-c3ccccc3)cc2)[C@H](CO)O1	11.0	1.1	-0.3	4.3	0.2	0.2

An excerpt from above in order of count of non-hydrogen atoms, lowest first:
SMILES	Yeast UUG start	AF4-AF9 inh	E-sel inducer	RAD52 inh	SIRT5 block	RAD54 inh
CCC(=O)N[C@H]1C[C@@H]2O[C@H](CO)CC[C@@H]2O[C@@H]1CCc1ccc(-c2cccc(OC)c2)cc1	·	-1.7	·	-9.3	1.8	·
C[C@H](CO)N1C[C@H](C)[C@@H](CN(C)CC2CCCCC2)Oc2ccc(NC(=O)Cn3cnnn3)cc2C1=O	-12.4	1.3	-0.4	-22.8	15.3*!	-3.5
C[C@@H]1CN([C@H](C)CO)C(=O)c2cc(NC(=O)Cn3cnnn3)ccc2O[C@@H]1CN(C)S(=O)(=O)c1ccccc1	·	1.2	60.3*	-13.3	-5.8	·

Carrying on:
SMILES	Yeast UUG start	AF4-AF9 inh	E-sel inducer	RAD52 inh	SIRT5 block	RAD54 inh
COc1ccc(S(=O)(=O)Nc2ccc3c(c2)C(=O)N([C@H](C)CO)C[C@H](C)[C@H](CN(C)S(=O)(=O)c2ccccc2)OCCCC[C@H](C)O3)cc1	·	-4.1	-0.1	15.6	17.3*	·
COc1ccc(S(=O)(=O)Nc2ccc3c(c2)C(=O)N([C@H](C)CO)C[C@@H](C)[C@@H](CN(C)S(=O)(=O)c2ccccc2)OCCCC[C@@H](C)O3)cc1	·	2.6	0.2	0.5	24.2*	·
C[C@H]1CN([C@@H](C)CO)C(=O)c2ccccc2-c2ccccc2CO[C@H]1CN(C)C(=O)c1ccncc1	·	-3.6	-0.5	1.6	-1.4	-1.9
O=C(C1CCC1)N1CC2(C1)[C@H](c1ccccc1)[C@H](CO)N2C(=O)c1ccccn1	·	-0.2	-0.1	-8.9	0.1	·
C[C@H](CO)N1C[C@H](C)[C@H](CN(C)C)Oc2cc(-c3cccc(C#N)c3)ccc2S1(=O)=O	-5.4	5.7	0.0	-4.1	-4.6	0.2
CCN(CC)S(=O)(=O)c1ccc(N2CCOCC2)c(NC(=O)CSCc2c(C)noc2C)c1	2.5	3.9	·	-4.9	-0.2	4.0
Cc1noc(C)c1CSCC(=O)Nc1cc(C(F)(F)F)ccc1N1CCOCC1	-15.0	-1.7	40.7*	-20.9	-1.3	1.2
O=C(Nc1nccs1)c1cccc2ccccc12	-16.7	-0.8	·	-14.6	17.8*	0.7
C#CC1(NC(=O)NC(C)C)CCCCC1	·	-2.7	0.1	-1.6	94.1*	·
COc1cccc(-c2ccc3c(c2)[C@@H]2[C@@H](CCN2S(=O)(=O)c2ccc(F)cc2)[C@H](CO)N3C)c1	4.6	-2.2	-0.9	-16.0	7.8	19.6
CC1CN(C(=O)COC(=O)CSc2ccc(C(N)=O)cc2[N+](=O)[O-])CC(C)O1 (stereo not given)	·	-19.5	218.7*	0.6	1.3	·
CC1CCC(NC(=O)COC(=O)CSc2ccc(C(N)=O)cc2[N+](=O)[O-])CC1 (stereo not given)	·	-1.3	·	-4.3	-0.3	·
O=C(Nc1ccc2c(c1)[C@H]1C[C@H](CC(=O)N3CCOCC3)O[C@@H](CO)[C@H]1O2)C1CCC1	-15.6	·	-0.2	·	·	-12.5
Cc1cc(C)cc(N(C(=O)c2csnn2)C(C(=O)NC(C)(C)C)c2ccccn2)c1 (stereo not given)	·	-1.1	·	1.0	25.9*	·
CC(=O)N(C)C[C@@H]1Oc2ncc(-c3ccccc3C)cc2C(=O)N([C@H](C)CO)C[C@H]1C	-13.2	-2.3	0.1	9.1	32.3*	10.7
C[C@@H]1CN([C@@H](C)CO)C(=O)c2cc(-c3ccccc3F)cnc2O[C@@H]1CN(C)C	-12.5	-10.2	-0.6	13.5	-3.3	-15.8
C[C@H](CO)N1C[C@H](C)[C@H](CN(C)C)Oc2ncc(-c3ccccc3F)cc2C1=O	-9.2	-10.9	-0.2	14.0	17.2*	-12.0
CCNC(=O)C[C@@H]1CC[C@@H](NS(=O)(=O)c2ccc(C)cc2)[C@@H](CO)O1	7.7	-0.3	-0.1	16.8	2.0	4.7
O=C(O)CCCCC1SCC2NC(=O)NC21 (stereo not given)	13.6	70.3*	·	-2.2	-1.7	1.0
Cc1ccccc1S(=O)(=O)/N=C(/c1ccccc1)N1CCOCC1	·	-0.7	·	-8.0	16.4*	·

With a hit mark in AF4-AF9 inh, of those listed so far:
Molecule | Yeast UUG start | AF4-AF9 inh | RAD52 inh | SIRT5 block
O=C(O)CCCCC1SCC2NC(=O)NC21 (stereo not given) | 13.6 | 70.3* | -2.2 | -1.7

The listing continues:
SMILES	Yeast UUG start	AF4-AF9 inh	E-sel inducer	RAD52 inh	SIRT5 block	RAD54 inh
C[C@H]1CN([C@@H](C)CO)C(=O)c2cc(NS(=O)(=O)c3ccc(Cl)cc3)ccc2O[C@@H]1CN(C)C(=O)Nc1ccc(C(F)(F)F)cc1	·	·	0.8	·	·	·
Cc1ccc(S(=O)(=O)Nc2ccc3c(c2)CC(=O)N([C@@H](C)CO)C[C@H](C)[C@H](CN(C)Cc2ccc(-c4ccccc4)cc2)O3)cc1	12.2	-0.4	0.1	19.3	18.0*	-3.7
Cc1ccc(S(=O)(=O)Nc2ccc3c(c2)CC(=O)N([C@@H](C)CO)C[C@H](C)[C@@H](CN(C)Cc2ccc(-c4ccccc4)cc2)O3)cc1	4.9	1.8	0.1	27.2	18.8*	1.0
Cc1ccc(S(=O)(=O)Nc2ccc3c(c2)CC(=O)N([C@H](C)CO)C[C@H](C)[C@H](CN(C)Cc2ccc(-c4ccccc4)cc2)O3)cc1	13.7	1.4	0.3	11.8	3.0	4.6
Cc1ccc(S(=O)(=O)Nc2ccc3c(c2)CC(=O)N([C@H](C)CO)C[C@H](C)[C@@H](CN(C)Cc2ccc(-c4ccccc4)cc2)O3)cc1	6.7	5.7	-0.1	67.0*	11.6	2.6
COC(=O)C[C@@H]1C[C@@H]2c3cc(NS(=O)(=O)c4ccccc4)ccc3O[C@@H]2[C@H](CO)O1	-8.5	·	0.3	·	·	6.2
O=C(C[C@H]1C=C[C@H](NC(=O)Nc2ccc(C(F)(F)F)cc2)[C@H](CO)O1)NCCN1CCCC1	-11.7	1.0	-0.3	-3.4	1.2	2.0
C[C@@H]1CN([C@@H](C)CO)S(=O)(=O)c2ccc(C#Cc3ccc(F)cc3)cc2O[C@H]1CN(C)C	0.2	7.5	1.2	20.7	-2.6	-1.8
